# Source: patent publication US6093742A, “Inhibitors of p38” (Vertex Pharmaceuticals, Inc., priority 1997, dated 2000)
# By UniProt entry, the sequences of proteins in these tests, tags left out.
# UniProt Q16539, whole entry: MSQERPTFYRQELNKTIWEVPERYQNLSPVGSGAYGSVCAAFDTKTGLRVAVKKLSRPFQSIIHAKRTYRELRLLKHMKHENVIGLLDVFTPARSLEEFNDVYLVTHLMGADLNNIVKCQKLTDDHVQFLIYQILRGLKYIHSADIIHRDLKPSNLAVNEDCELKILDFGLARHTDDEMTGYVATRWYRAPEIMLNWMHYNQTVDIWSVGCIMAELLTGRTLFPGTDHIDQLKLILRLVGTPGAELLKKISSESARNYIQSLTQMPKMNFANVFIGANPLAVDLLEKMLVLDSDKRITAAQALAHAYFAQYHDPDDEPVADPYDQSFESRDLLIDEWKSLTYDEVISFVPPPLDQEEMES
# Target: T1, p38 (Homo sapiens, UniProt Q16539)
# T1 construct: made in house; host or cells: Trichoplusia ni (Tn-368) High-Five insect cells infected with recombinant baculovirus (virus made in Sf9)
# Experiment: p38 inhibition assay: inhibition of phosphorylation of EGF receptor peptide
# Format: biochemical
# Conditions: activated p38 (5 nM), EGF receptor peptide 200 μM, ATP 100 μM, 30 min at 30° C., pH 7.6, HPLC
# Text: Two splice variants of human p38 kinase, CSBPl and CSBP2, have been identified. Specific oligonucleotide primers were used to amplify the coding region of CSBP2 cDNA using a HeLa cell library (Stratagene) as a template. The polymerase chain reaction product was cloned into the pET-15b vector (Novagen). The baculovirus transfer vector, pVL-(His)6-p38 was constructed by subcloning a XbaI-BamHI fragment of pET15b-(His)6-p38 into the complementary sites in plasmid pVL1392 (Pharmingen).
# P38 was activated by combining 0.5 mg/ml p38 with 0.005 mg/ml DD-double mutant MKK6 in Buffer B+10 mM MgCl2, 2 mM ATP, 0.2 mM Na2VO4 for 30 minutes at 20° C. The activation mixture was then loaded onto a 1.0×10 cm MonoQ column (Pharmacia) and eluted with a linear 20 column volume gradient to 1.0 M NaCl in Buffer B. The activated p38 eluted after the ADP and ATP. The activated p38 peak was pooled and dialyzed against buffer B+0.2 mM Na2VO4 to remove the NaCl. The dialyzed protein was adjusted to 1.1M potassium phosphate by addition of a 4.0M stock solution and loaded onto a 1.0×10 cm HIC (Rainin Hydropore) column previously equilibrated in Buffer D (10% glycerol, 20 mM β-glycerophosphate, 2.0 mM DTT)+1.1MK2HPO4. The protein was eluted with a 20 column volume linear gradient to Buffer D+50 mM K2HPO4. […]
# The phosphorylated peptide was quantified by HPLC analysis. […]
smiles,measurement,value
O=C(Nc1ccccc1)Nc1cc(Cl)c([N+](=O)[O-])cc1O [Compound 6],IC50,140 nM
